# AlphaSeq binding of Ab-95 light chain variants to a spike HR2 peptide

The measurements come from Engelhart et al. 2022 (doi:10.1038/s41597-022-01779-4) through the FLAb antibody collection.

Target: peptide PDVDLGDISGINAS, taken from heptad repeat 2 (HR2) of SARS-CoV-2 spike.

The variants keep the heavy chain, the linker and the frameworks of Ab-95 (scFv order VH, a (GGGGS)3 linker, VL).
VH: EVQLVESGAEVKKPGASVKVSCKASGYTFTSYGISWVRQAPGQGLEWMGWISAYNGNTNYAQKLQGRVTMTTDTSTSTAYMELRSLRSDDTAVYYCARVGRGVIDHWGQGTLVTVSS
VL: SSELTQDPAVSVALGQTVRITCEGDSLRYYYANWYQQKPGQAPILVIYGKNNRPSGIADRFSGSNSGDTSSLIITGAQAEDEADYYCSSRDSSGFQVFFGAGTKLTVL

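The starting antibody came from a phage panning campaign against this peptide. Variants in AAYL52 differ from the parent at up to three CDR positions; double and triple changes were sampled at random. The assay is AlphaSeq: two haploid yeast populations carry antibody and antigen on their surface. After mating in shaken culture at 30 °C for 16 h, diploids were selected and their barcode pairs sequenced. Each replicate has its own calibration line, from reference interactions of the BCL2 family. Each pool was mated in three replicate cultures.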

Variants are written as CDR1, CDR2 and CDR3 of the light chain (limits as in the source). Parent: EGDSLRYYYAN, GKNNRPS, SSRDSSGFQVF.
Scale: log10 of Kd in nM, estimated from mating counts; low values are strong binders.
Replicates are averaged; those with no signal do not enter the mean.
"ND" marks a missing value. The strain was present, yet no cells mated with the target were sequenced in that replicate, which points to weak or no binding.
Nonspecific signal, from three strains lacking the peptide, appeared in 28% of pairings of library AAYL52, centred on 3.91 (5% of these signals below 2.90); values are not corrected for it. The control count says in how many pairings with the empty strains this scFv gave a signal, with their mean in brackets.

CDR-L1 | CDR-L2 | CDR-L3 | log10 Kd, replicates | log10 Kd (nM), mean | control signals
EGDSSRYYYAN | GQNWRPS | SSRDSSGFQVF | ND 4.38 ND | 4.38 | 2 of 9 (3.74)
EGVSLRYYYPN | GKNNRPS | SGRDSSGFQVF | 1.70 1.65 1.32 | 1.56 | 2 of 9 (4.66)
ESDSLRYYYAN | GKNNRPS | SSRDSSGFQSF | 3.13 2.53 2.62 | 2.76 | 2 of 9 (4.43)
EGHSLRYYYAN | GKNNRPS | SSRDSSFFHVF | 3.09 2.85 2.29 | 2.74 | 5 of 9 (4.28)
EGDSFRFYYAN | GKNNRPS | SSRDSSGFQVF | 3.31 3.09 ND | 3.20 | 2 of 9 (3.58)
EGDSLRRYYAN | GKNNRPS | SSRDSSGFQMD | 4.77 ND ND | 4.77 | 1 of 9 (4.12)
EGDSLRVYYAN | GKNNRPV | ISRDSSGFQVF | 4.34 ND 4.52 | 4.43 | 0 of 9
EGDSLRYYYDN | GKFNRIS | SSRDSSGFQVF | ND 4.92 ND | 4.92 | 6 of 9 (3.88)
EGDSLRNYYAN | FKNNRPS | SSRDSEGFQVF | ND ND ND | ND | 5 of 9 (3.39)
EGDSLRYYFAN | GKNNRPS | SSRQSSGSQVF | 3.42 3.29 3.44 | 3.38 | 2 of 9 (4.42)
EGDSTRYYYAN | EKNNRPV | SSRDSSGFQVF | ND ND ND | ND | 1 of 9 (3.26)
EGDSQRVYYAN | GKNNRPS | SSRDESGFQVF | 5.77 3.74 2.72 | 4.08 | 3 of 9 (3.73)
AGDSLRYYYYN | GKNYRPS | SSRDSSGFQVF | 3.15 4.15 4.25 | 3.85 | 3 of 9 (3.39)
EGDSLRYYEAN | GCNNRPS | SSRDSSGNQVF | 2.32 3.37 2.94 | 2.88 | 2 of 9 (3.85)
EGDSLRYYYAN | GKHNRPS | SSRDSEGFQAF | ND 3.24 ND | 3.24 | 1 of 9 (5.26)
EGDYGRYYMAN | GKNNRPS | SSRDSSGFQVF | 3.78 3.92 ND | 3.85 | 2 of 9 (3.31)
EGDRLRYYYAN | GKNNRPS | SSRDSLGFQVP | 3.71 4.83 ND | 4.27 | 1 of 9 (3.80)
EGDSLRYYYAN | GKNNRPS | SSRDSSGIQVI | 3.25 2.65 3.51 | 3.14 | 5 of 9 (3.90)
EGDQLRYYYAN | GKNNRPS | SSRDSSGFQVF | 3.28 3.90 3.27 | 3.49 | 4 of 9 (3.96)
EGDSLRQNYAN | GSNNRPS | SSRDSSGFQVF | 0.66 0.78 -0.07 | 0.46 | 2 of 9 (4.53)
EGDSKRMYYAN | GKNNRPS | SSRDRSGFQVF | 3.88 4.60 ND | 4.24 | 2 of 9 (3.89)
EGDSGRYAYAN | GKNNRPS | SSWDSSGFQVF | ND ND ND | ND | 1 of 9 (4.28)
EGDHLRYYYAN | GKNNIPS | SSRDSSGFQVC | ND 5.70 ND | 5.70 | 3 of 9 (3.99)
EGDSLRYYYAN | GKNARPS | SSRDYSGFGVF | ND ND ND | ND | 2 of 9 (4.51)
EGDSLRYYFAN | GKNNRAS | SSRDSSDFQVF | 2.46 2.56 3.00 | 2.67 | 3 of 9 (3.79)
EGDSETYYYAN | GKNNRPS | SSRDSSGNQVF | 3.62 ND ND | 3.62 | 0 of 9
EGDSLRYYYAN | GNNNLPS | SSRDSCGFQVF | 4.41 4.08 3.00 | 3.83 | 3 of 9 (3.44)
ECDSLRYYYAN | GKNNRPS | SSRDSSGFQDS | 3.81 3.37 ND | 3.59 | 4 of 9 (4.00)
PGDSLRYYYAN | GKNNRPS | SSRDSQGFKVF | ND ND ND | ND | 1 of 9 (4.48)
GGDSLRYYYAN | GKTNRPS | SSRDSSGFCVF | 3.32 3.75 3.25 | 3.44 | 2 of 9 (3.97)

Top 2 of the variants detected in all replicates, tightest first:

CDR-L1,CDR-L2,CDR-L3,"log10 Kd, replicates","log10 Kd (nM), mean",control signals
EGDSLRQNYAN,GSNNRPS,SSRDSSGFQVF,0.66 0.78 -0.07,0.46,2 of 9 (4.53)
EGVSLRYYYPN,GKNNRPS,SGRDSSGFQVF,1.70 1.65 1.32,1.56,2 of 9 (4.66)